Measured values published in patent US8765820B2, “Tranylcypromine derivatives as inhibitors of histone demethylases LSD1 and/or LSD2” (Universita Degli Studi di Roma “La Sapienza”, priority 2010, dated 2014).
pKi: −log10 of the molar value.

Amino acid sequences for entries named in this document (tags omitted).
UniProt P27338, whole entry: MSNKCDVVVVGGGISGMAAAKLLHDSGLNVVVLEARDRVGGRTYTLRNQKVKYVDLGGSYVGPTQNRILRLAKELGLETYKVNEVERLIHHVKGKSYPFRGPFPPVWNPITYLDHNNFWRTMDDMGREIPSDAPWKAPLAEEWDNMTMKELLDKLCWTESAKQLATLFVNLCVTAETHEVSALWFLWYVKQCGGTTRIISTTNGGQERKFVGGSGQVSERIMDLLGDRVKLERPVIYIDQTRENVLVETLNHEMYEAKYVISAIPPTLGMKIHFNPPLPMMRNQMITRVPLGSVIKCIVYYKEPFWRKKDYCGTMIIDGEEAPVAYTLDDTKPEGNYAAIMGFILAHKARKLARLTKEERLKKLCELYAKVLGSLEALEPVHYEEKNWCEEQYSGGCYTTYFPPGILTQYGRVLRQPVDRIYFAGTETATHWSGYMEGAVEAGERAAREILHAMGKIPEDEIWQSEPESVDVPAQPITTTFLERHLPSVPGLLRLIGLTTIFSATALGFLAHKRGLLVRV

Target: Human recombinant MAO B (Homo sapiens (Human), UniProt P27338)
Assay: MAO B inhibition, peroxidase-coupled assay with benzylamine as substrate
Type: biochemical
Details: 25° C., pH 7.5; no inhibition = no detectable inhibition at inhibitor saturated solutions

- pKi: 5.46
Structure (SMILES): N[C@@H]1C[C@H]1c1ccc(NC(=O)c2ccccc2)cc1 (relative stereo)
